# Reference: article PMC2818678 (Bioorganic & medicinal chemistry, 2009)
# Chains of the proteins cited; added tags and fusions are not shown.
# UniProt P0DMS8, whole entry: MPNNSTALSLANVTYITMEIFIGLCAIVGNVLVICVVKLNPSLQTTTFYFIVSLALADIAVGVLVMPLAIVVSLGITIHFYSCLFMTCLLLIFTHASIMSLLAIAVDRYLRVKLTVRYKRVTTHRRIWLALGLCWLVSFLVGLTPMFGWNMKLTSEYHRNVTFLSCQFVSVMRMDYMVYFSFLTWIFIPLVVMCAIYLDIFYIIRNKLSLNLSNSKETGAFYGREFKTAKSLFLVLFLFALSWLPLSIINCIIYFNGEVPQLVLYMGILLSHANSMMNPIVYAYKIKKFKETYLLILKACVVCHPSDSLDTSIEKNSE
# Target: human A3AR (Homo sapiens, UniProt P0DMS8)
# Experiment: Inhibition of forskolin-stimulated cAMP production in A3AR-expressing CHO cells
# Type: cell-based
# Settings: inhibition of forskolin-stimulated cAMP at 10 μM, NECA as reference standard
substance,measurement,value
"2-chloro-N^6-(3-iodobenzyl)-5′-N-methylcarboxamidoadenosine [Cl-IB-MECA, reference compound]",A3AR agonist efficacy (in words),full agonists
